The target in this experiment is Fatty-acid amide hydrolase 1 (Homo sapiens, UniProt O00519). Briefly: Inhibition of human recombinant FAAH.

Sequences of proteins named here, by UniProt entry; tags and fusion partners are left off.
UniProt O00519, whole entry: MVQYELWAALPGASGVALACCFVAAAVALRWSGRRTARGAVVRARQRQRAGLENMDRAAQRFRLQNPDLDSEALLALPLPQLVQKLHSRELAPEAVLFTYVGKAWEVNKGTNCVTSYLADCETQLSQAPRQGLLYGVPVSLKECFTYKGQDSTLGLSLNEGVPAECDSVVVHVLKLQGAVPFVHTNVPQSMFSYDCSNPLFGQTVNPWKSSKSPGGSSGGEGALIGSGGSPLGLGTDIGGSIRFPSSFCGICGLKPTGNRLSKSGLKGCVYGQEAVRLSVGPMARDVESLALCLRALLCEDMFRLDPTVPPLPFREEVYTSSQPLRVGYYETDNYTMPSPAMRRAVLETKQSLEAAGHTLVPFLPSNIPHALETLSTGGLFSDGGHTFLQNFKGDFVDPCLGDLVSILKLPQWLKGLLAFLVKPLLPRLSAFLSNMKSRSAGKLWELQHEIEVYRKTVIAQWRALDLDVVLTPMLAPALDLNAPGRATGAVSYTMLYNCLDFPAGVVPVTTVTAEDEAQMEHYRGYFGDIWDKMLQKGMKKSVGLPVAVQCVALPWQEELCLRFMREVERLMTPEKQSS

By IC50 is commonly meant the midpoint of a concentration-inhibition curve. In the case of `C#CCCCCCCCCCNC(=O)Oc1cccc(-n2ccc(C(N)=O)c2)c1`, the IC50 was found to be 0.17 µM.

For the origin of these results see ChEMBL document CHEMBL2163339, “Discovery of potent inhibitors of human and mouse fatty acid amide hydrolases” (J Med Chem, 2012).
